Measured values from PubChem BioAssay AID602405 (Broad Institute, 2012).
The list shows a part of the results, in another mix than the full data. Activity calls are given as the source filed them. Cut-off read from the data, not from the text of the source: active = inhibition above about 16% (passing the limit was not always enough); inconclusive = no clear call, values can overlap the other calls; inactive = below that.

tested on: UDP-N-acetylbacillosamine N-acetyltransferase PglD (Campylobacter jejuni); test: blockers of PglD enzyme activity – biochemical, DTNB colorimetric, single point, primary screen (AID 602405); conditions: purified PglD enzyme, DTNB colorimetric CoA detection; at 12.5 µM; active compounds read high

SMILES	inhibition
CCC(=O)N(c1ccccc1)C1(COC)CCN(CCc2cccs2)CC1	inactive: -1.73%
CCC(=O)N(c1ccccc1)C1(COC)CCN(CCn2nnn(CC)c2=O)CC1	inactive: 1.66%
